Values quoted from earlier work, collected in patent US20090304663A1, “USE OF GSK-3 INHIBITORS FOR THE TREATMENT OF PROSTATE CANCER” (IMPERIAL INNOVATIONS LIMITED, priority 2004, published 2009).

By UniProt entry, the sequences of proteins in these tests, tags left out.
UniProt P49841, whole entry, species assumed: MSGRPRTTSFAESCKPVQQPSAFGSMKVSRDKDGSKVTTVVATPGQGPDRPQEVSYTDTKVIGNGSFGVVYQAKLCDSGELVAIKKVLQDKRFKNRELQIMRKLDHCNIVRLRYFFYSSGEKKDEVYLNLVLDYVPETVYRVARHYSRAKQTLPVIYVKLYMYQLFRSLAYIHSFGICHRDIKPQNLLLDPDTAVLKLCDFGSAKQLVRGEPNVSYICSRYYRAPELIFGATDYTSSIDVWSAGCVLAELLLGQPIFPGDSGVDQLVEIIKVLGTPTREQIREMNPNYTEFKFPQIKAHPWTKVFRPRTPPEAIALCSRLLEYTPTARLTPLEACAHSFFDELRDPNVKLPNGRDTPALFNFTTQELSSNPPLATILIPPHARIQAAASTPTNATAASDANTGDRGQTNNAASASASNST

Molecular target: GSK-3 β (Homo sapiens, UniProt P49841)
Conditions: cited from earlier work

For `O=C1NC(=O)C(c2cn(CCCO)c3ncccc23)=C1c1cnccn1` [3-(1-(3-Hydroxypropyl)-1H-pyrrolo[2,3-b]pyridin-3-yl]-4-pyrazin-2-yl-pyrrole-2,5-dione], the Ki is listed as 25 nM.
